Publication PMC12484723, “COOKIE-Pro: covalent inhibitor binding kinetics profiling on the proteome scale” (Nature Communications, 2025)

Sequences of proteins named here, by UniProt entry; tags and fusion partners are left off. Residues count along the entry.
UniProt Q06187, 2-659: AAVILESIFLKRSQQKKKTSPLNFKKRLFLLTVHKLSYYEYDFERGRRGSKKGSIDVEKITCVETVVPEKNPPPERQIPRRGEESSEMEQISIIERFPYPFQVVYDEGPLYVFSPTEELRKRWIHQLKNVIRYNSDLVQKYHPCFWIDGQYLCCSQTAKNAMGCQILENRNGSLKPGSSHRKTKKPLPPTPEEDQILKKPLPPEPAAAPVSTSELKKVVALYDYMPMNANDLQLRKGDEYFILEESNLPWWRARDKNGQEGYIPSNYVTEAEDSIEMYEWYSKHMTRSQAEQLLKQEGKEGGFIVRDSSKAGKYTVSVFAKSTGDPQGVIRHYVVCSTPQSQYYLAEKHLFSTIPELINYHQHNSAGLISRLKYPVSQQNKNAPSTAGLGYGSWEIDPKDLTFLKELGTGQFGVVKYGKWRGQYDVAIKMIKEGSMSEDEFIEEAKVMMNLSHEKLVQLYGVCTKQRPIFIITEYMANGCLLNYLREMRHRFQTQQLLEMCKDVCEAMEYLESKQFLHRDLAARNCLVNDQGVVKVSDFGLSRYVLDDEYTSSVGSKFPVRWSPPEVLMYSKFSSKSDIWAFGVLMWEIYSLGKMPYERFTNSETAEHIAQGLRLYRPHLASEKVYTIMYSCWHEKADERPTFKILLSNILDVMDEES

Biological target: Bruton's Tyrosine Kinase (BTK) (Homo sapiens, UniProt Q06187)
Test: COOKIE-Pro competition chemoproteomics in permeabilized Ramos cells (kinact/KI)
Type: cell-based

C=CC(=O)Nc1cccc(Nc2nc(Nc3ccc(OCCOC)cc3)ncc2F)c1 [spebrutinib] was tested. Which kinact/KI did it give?
Its kinact/KI is 91500 M⁻¹ s⁻¹.
